# Assay results reported in US7700763B2, “3-triazolyl-galactoside inhibitors of galectins” (Forskarpatent I Syd AB, priority 2004, dated 2010).
# Protein sequences, listed by entry. Tags and fused reporters are not part of them.
# UniProt P17931, whole entry: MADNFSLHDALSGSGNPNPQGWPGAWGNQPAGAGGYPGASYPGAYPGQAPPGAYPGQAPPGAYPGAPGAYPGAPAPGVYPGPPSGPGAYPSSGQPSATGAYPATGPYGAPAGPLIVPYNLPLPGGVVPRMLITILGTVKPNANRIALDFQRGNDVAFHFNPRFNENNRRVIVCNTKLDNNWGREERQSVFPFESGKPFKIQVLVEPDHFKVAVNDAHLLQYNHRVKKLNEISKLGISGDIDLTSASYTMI
# Molecular target: T1, Recombinant human galectin-3 (Homo sapiens, UniProt P17931)
# T1 construct: made in house; host or cells: Escherichia coli
# Assay: fluorescence polarization-based galectin-3 inhibition assay
# Type: binding
# Conditions: Calculated Kd
# Description: NMR-spectra were recorded with a Bruker DRX-400 instrument. Chemical shifts are given in ppm, with reference to internal residual solvent peaks. Chemical shifts and coupling constants were obtained from ^1H-NMR and proton resonances were assigned from COSY experiments. High-resolution FAB mass spectra (HRMS) were recorded with a JEOL SX-120 instrument. Fluorescence polarization experiments were performed on a PolarStar instrument (BMG, Offenburg; Germany). Column chromatography was performed on SiO2 (Matrex, 60 Å, 35-70 μm, Grace Amicon) and TLC was carried out on SiO2 60 F254 (Merck) with detection under UV light and developed with aqueous sulfuric acid. Concentrations were made using rotary evaporation with bath temperature at or below 40° C. CH2Cl2 and CH3CN were dried by distillation from CaH2. […]
# To 100 μL of galectin-3 (1 μM) and a fluorescent probe (2-(fluorescein-5/6-yl-carbonyl)-aminoethyl 4-O-[3-O-(4-methoxy]benzyl)-β-D-galactopyranosyl]-β-D-glucopyranoside, 0.1 μM) were added inhibitor solution (3.2-10000 μM, 100 μL), the plate was incubated under slow rotary shaking in the dark for 5 minutes, and fluorescence polarization measured at room temperature. The fluorescence was measured from above in 96 well microtiter plates (black polystyrene, Costar, Corning, N.Y.) using a PolarStar instrument (BMG, Offenburg; Germany). […]
structure (smiles),measurement,value
"CNC(=O)c1cn([C@H]2[C@@H](O)[C@@H](CO)O[C@@H](O[C@H]3[C@H](O)[C@@H](NC(C)=O)[C@H](OC)O[C@@H]3CO)[C@@H]2O)nn1 [Compound 21, Methyl 3-(4-methylaminocarbonyl-1H-[1,2,3]-triazol-1-yl)-3-deoxy-β-D-galactopyranosyl-(1→4)-2-acetamido-2-deoxy-β-D-glucopyranoside]",Kd,5.8 µM
